The values that follow come from patent US4533665A, “[[Bis(aryl)methylene]-1-piperidinyl]alkyl-pyrimidinones” (Janssen Pharmaceutica, priority 1984, dated 1985).

Protein sequences, listed by entry. Tags and fused reporters are not part of them.
UniProt P14842, whole entry: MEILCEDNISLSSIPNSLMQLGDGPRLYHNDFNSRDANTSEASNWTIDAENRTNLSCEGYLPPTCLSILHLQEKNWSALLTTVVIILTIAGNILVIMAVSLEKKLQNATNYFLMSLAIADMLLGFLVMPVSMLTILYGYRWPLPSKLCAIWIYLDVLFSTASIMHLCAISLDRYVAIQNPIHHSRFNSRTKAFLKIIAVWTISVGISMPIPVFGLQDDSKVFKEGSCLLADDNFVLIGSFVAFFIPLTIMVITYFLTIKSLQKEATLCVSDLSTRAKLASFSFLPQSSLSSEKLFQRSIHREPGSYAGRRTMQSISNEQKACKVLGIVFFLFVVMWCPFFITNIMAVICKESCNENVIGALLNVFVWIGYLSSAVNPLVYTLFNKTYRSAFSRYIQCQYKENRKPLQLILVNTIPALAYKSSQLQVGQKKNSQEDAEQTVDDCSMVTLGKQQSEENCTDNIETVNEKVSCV

For this assay, the target named is T1, S2-receptor (Rattus norvegicus, UniProt P14842).
T1 construct: Caudal arteries from fasted male rats; from tissue; host or cells: rat caudal artery, helical strips
Put plainly: antagonistic activity on the effect of serotonin on the caudal artery of the rat (caudal artery test). The conditions noted are these: rat caudal artery strips; serotonin 40 ng/ml; 5 minutes after adding the drug; read-out: ED50 (minimal concentration which reduces the amplitude of the serotonin-induced contraction to at least 50% of its normal value) (converted). An excerpt:
The S2 -antagonistic activity of the compounds of formula (I) their possible stereochemically isomeric forms and their pharmaceutically acceptable acid addition salts is evidenced by the experimental data obtained in the caudal actery test.
ANTAGONISTIC ACTIVITY ON THE EFFECT OF SEROTONIN ON THE CAUDAL ARTERY OF THE RAT
Caudal arteries from fasted male rats (210-235 g) were used in the test. Two helical strips having a length of 5-6 cm and a width of 2 mm. were obtained from each artery and mounted vertically in a 100 ml organ bath containing an oxygenated Krebs-Henseleit solution. Submaximal contractions of the arterial strips were produced by adding single doses of serotonin (40 ng/ml) to the organ bath for 2 minutes with each time an interval of 10 minutes. The amplitude of the contraction was measured before and 5 minutes after adding the drug. After washing out, the agonist was added again three times in order to see whether the contraction was restored and normalized. […] In this connection the ED50 -values are the minimal concentrations of the concerned drugs which reduce the amplitude of the contraction to at least 50% of its normal value.

SMILES strings stand for the structures.

Turning to `Cc1nc2sccn2c(=O)c1CCN1CCC(=C(c2ccc(F)cc2)c2ccc(F)cc2)CC1` [Compound 1, 6-[2-[4-[bis(4-fluorophenyl)methylene]-1-piperidinyl]ethyl]-7-methyl-5H-thiazolo[3,2-a]pyrimidin-5-one], the IC50 is 0.168 pM.
